Measured values published in patent US6005007A, “Retinoids, methods for their production and use” (priority 1997, dated 1999).

Test system: ME 180
Assay: Incorporation of 3H-thymidine, ME 180
Assay type: cell-based
Settings: Homo sapiens, ME-180, read-out: TdR IC50 ME 180 (nM)

IC50: 253 nM
Structure (SMILES): CC1=C(/C=C/C(C)=C/C=C/C(C)=C/C(=O)O)C(C)(C)CCC1 [ATRA, all-trans retinoic acid]
